Our source for the EC50 values is US10058550B2.

Protein sequences, listed by entry. Tags and fused reporters are not part of them.
UniProt P35414, whole entry: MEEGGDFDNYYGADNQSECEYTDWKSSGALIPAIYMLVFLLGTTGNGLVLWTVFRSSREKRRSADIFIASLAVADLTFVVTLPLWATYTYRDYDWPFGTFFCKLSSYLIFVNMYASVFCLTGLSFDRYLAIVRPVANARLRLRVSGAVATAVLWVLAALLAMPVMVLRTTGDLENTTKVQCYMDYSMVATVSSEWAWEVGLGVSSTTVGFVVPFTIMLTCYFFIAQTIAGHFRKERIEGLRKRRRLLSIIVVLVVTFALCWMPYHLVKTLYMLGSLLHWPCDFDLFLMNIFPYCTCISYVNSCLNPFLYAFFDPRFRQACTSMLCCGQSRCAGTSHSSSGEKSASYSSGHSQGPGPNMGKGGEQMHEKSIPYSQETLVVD

By EC50 is commonly meant the midpoint of the concentration-response curve.

The test deals with human APJ receptor (Homo sapiens (Human), UniProt P35414). The settings on record: read-out: Activity hAPJ SPA EC50 IP.

Turning to `CCO[C@@H](c1ncc(C)cn1)[C@@H](C)S(=O)(=O)Nc1nnc(-c2cncc(C)c2)n1-c1c(F)cccc1F` (relative stereo), the EC50 worked out at 5.8 nM.
